Data on one compound can be found in article PMC11435890, “Enzymatic Hydrolysis of Resorcylic Acid Lactones by an Aeromicrobium sp” (Toxins, 2024).

By UniProt entry, the sequences of proteins in these tests, tags left out.
UniProt P02829, whole entry: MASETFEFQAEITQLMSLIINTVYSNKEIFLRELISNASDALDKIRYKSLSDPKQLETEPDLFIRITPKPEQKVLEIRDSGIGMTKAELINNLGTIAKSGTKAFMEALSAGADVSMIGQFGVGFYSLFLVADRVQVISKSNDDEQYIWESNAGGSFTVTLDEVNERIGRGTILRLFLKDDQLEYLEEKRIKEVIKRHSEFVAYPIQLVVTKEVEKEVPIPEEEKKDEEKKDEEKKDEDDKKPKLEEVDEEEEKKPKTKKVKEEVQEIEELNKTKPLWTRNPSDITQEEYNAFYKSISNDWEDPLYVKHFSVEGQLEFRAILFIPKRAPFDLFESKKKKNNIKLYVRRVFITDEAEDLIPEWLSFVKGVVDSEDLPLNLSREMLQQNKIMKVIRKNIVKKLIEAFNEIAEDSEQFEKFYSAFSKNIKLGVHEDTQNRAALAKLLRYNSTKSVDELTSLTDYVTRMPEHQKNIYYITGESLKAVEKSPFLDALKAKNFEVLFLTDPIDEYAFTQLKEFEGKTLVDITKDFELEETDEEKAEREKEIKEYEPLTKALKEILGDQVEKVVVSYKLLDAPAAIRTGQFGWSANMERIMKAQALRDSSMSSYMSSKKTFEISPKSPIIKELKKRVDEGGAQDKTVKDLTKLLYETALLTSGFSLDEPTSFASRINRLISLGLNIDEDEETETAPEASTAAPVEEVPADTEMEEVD

Molecules are shown by their SMILES.

In this experiment the target is T1, ScHsp82 (ScHSP82) (Saccharomyces cerevisiae, UniProt P02829).
T1 construct: gene HSP82; Ni-NTA and gel permeation
The experiment in a line: malachite green ATPase inhibition assay. The format is biochemical.

On to `C[C@@H]1C[C@H]2O[C@@H]2/C=C\C=C\C(=O)Cc2c(Cl)c(O)cc(O)c2C(=O)O1` [III, RAD], for which the “% decrease in ATPase activity at 50 μM” value is 68%.
